Laboratory results from patent publication US20070191324A1, “Methods for treatment or prophylaxis of aldosterone-mediated pathogenic effects in a subject using an epoxy-steroidal aldosterone antagonist” (priority 1999, published 2007).

By UniProt entry, the sequences of proteins in these tests, tags left out. Where a name states a change or a piece, a line headed by the entry shows the natural chain unless it says otherwise.
UniProt P01019: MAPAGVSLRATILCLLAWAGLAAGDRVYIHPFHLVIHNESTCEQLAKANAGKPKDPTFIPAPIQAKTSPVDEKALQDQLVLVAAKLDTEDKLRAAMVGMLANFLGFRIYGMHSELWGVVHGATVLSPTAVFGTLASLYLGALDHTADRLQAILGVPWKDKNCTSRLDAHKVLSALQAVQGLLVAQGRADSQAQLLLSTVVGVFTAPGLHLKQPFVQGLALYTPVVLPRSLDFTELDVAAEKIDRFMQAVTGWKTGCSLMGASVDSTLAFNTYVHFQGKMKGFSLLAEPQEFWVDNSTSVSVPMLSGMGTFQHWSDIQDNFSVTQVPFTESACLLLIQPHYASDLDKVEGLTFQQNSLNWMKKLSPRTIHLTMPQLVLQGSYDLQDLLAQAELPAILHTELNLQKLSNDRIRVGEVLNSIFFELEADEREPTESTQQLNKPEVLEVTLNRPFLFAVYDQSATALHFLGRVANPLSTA

System: captopril-treated saline-drinking SHRSP
Test: Angiotensin II-induced renal damage in captopril-treated saline-drinking SHRSP, Protocol 2 (Example A-8)
Type: in vivo, rat (SHRSP/A3N)
Settings: captopril 50 mg/kg/d; angiotensin II 25 ng/min; eplerenone 100 mg/kg/d
Description: Animals. Studies were conducted in accordance with institutional guidelines using male SHRSP/A3N (generations F-75 to F-78), n=37, from our local colony. These animals were bred from NIH stock, derived from the SHRSP/A3N substrain described originally by Okamoto and coworkers (Okamoto K et al. Circ. Res. 34 and 35 (suppl I):I-143-I-153.). All animals were housed in a room maintained on a 12:12-h light:dark-cycle and an ambient temperature of 22±1° C. in the Animal Care Facility at New York Medical College. Rats were weaned at 4 weeks of age and allowed free access to Purina Lab Chow 5001 (Ralston Purina, St. Louis, Mo.) and tap water until the initiation of experimental protocols.
SHRSP were placed on Stroke-Prone Rodent Diet (#39-288, Zeigler Bros Inc., Gardners, Pa.) and 1% NaCl drinking solution ad libitum starting at 8.3 weeks of age. […] Systolic blood pressure and heart rate were measured each week. […]
Assays and Analyses. Systolic blood pressure and heart rate of awake animals were measured by tail-cuff plethysmography using a Natsume KN-210 manometer and tachometer (Peninsula Laboratories Inc., Belmont, Calif.). […] Urinary protein concentration was determined by the sulfosalicylic acid turbidity method. Plasma aldosterone was measured by radioimmunoassay using ^125I-aldosterone as a tracer (Coat-a Count Aldosterone, Diagnostic Products Co., Los Angeles, Calif.). […]

Angiotensin II: Angiotensin II (human type) infused by osmotic minipump (DRVYIHPF; Angiotensin-2; UniProt P01019 25-32, looked up)
preterminal systolic blood pressure: 224±4 mm Hg
